Literature values as cited in US20210206820A1 (Purdue Research Foundation, priority 2018, published 2021).

Target: T1, VPAC-2 (Homo sapiens, UniProt P41587)
T1 sequence (P41587 24-438): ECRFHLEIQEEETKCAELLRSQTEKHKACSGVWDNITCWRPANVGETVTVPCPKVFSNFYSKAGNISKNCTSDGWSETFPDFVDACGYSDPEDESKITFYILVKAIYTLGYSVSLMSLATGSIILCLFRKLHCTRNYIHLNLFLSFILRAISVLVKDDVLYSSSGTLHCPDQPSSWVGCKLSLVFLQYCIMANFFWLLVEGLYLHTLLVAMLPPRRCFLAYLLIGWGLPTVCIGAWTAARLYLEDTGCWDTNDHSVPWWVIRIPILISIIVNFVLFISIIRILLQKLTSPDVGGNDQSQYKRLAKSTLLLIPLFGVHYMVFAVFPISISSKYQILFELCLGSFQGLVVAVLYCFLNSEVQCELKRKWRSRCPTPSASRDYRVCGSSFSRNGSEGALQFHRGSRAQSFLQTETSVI
Details: VIP compared with PACAP; cited from earlier work

Substance: Vasoactive Intestinal Peptide [VIP]
- Affinity for VPAC-2: equal affinity
